Test results as given in patent publication US7160555B2, “Immediate release medicinal compositions for oral use” (Kissei Pharmaceutical Co., Ltd., priority 1999, dated 2007).

Assay: Solubility in water
Format: physicochemical

(2S)-2-benzyl-3-(cis-hexahydro-2-iso-indolinylcarbonyl)propionic acid
solubility in water: poorly soluble in water
